Patent US10774052B2, “Heteroaryl compounds and uses thereof” (Celgene CAR LLC, priority 2013, dated 2020)

The chains behind the UniProt entries cited, without tags or fusion partners. Residues count along the entry.
UniProt P22455, 460-802: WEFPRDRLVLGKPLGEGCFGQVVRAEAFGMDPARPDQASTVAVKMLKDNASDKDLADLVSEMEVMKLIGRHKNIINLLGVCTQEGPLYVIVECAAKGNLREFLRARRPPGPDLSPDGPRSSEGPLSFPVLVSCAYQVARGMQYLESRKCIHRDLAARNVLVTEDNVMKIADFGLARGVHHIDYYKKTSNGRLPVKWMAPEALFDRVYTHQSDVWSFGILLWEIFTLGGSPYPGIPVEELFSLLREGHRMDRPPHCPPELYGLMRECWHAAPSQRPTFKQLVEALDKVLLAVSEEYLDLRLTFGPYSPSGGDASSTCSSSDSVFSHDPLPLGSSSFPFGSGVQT

Target: FGFR4 intact protein (Homo sapiens (Human), UniProt P22455)
[1] = intact FGFR4 (Invitrogen), 10-fold excess, 60 minutes

| Structure (SMILES) | MS FGFR4 (mass modification) (method a: FGFR4 from SignalChem, 10-fold excess of compound, 60 min) | centroid mass shift of FGFR4 [1] [Da] | percentage of modified protein (mass shift / molecular weight) [1] [%] |
| --- | --- | --- | --- |
| C=CC(=O)NC1CCCCC1Nc1ncc2c(n1)N(C)C(=O)N(c1c(Cl)c(OC)cc(OC)c1Cl)C2 (racemic) [Compound I-19] | E (mass modification of ≥70%) |  |  |
| C=CC(=O)Nc1ccccc1Nc1ncc2c(n1)N(Cc1cccc(NC(=O)CC)c1)C(=O)N(c1c(Cl)c(OC)cc(OC)c1Cl)C2 [Compound I-1] |  | 589 | 87 |
